Biological target: topoisomerase IIα (Homo sapiens, UniProt P11388)
Test: Supercoiled pHOT1 DNA relaxation assay
Type: biochemical
Conditions: 1 mM, positive control
Description: To determine whether CC-I is a specific inhibitor of topoisomerase I or IIα, the ability of CC-I to inhibit topoisomerases I and IIα activity was examined using a supercoiled DNA relaxation assay.

Protein sequences, listed by entry. Tags and fused reporters are not part of them. Lines headed by an entry give the natural chain unless they say otherwise; changes in a name come on top.
UniProt P11388: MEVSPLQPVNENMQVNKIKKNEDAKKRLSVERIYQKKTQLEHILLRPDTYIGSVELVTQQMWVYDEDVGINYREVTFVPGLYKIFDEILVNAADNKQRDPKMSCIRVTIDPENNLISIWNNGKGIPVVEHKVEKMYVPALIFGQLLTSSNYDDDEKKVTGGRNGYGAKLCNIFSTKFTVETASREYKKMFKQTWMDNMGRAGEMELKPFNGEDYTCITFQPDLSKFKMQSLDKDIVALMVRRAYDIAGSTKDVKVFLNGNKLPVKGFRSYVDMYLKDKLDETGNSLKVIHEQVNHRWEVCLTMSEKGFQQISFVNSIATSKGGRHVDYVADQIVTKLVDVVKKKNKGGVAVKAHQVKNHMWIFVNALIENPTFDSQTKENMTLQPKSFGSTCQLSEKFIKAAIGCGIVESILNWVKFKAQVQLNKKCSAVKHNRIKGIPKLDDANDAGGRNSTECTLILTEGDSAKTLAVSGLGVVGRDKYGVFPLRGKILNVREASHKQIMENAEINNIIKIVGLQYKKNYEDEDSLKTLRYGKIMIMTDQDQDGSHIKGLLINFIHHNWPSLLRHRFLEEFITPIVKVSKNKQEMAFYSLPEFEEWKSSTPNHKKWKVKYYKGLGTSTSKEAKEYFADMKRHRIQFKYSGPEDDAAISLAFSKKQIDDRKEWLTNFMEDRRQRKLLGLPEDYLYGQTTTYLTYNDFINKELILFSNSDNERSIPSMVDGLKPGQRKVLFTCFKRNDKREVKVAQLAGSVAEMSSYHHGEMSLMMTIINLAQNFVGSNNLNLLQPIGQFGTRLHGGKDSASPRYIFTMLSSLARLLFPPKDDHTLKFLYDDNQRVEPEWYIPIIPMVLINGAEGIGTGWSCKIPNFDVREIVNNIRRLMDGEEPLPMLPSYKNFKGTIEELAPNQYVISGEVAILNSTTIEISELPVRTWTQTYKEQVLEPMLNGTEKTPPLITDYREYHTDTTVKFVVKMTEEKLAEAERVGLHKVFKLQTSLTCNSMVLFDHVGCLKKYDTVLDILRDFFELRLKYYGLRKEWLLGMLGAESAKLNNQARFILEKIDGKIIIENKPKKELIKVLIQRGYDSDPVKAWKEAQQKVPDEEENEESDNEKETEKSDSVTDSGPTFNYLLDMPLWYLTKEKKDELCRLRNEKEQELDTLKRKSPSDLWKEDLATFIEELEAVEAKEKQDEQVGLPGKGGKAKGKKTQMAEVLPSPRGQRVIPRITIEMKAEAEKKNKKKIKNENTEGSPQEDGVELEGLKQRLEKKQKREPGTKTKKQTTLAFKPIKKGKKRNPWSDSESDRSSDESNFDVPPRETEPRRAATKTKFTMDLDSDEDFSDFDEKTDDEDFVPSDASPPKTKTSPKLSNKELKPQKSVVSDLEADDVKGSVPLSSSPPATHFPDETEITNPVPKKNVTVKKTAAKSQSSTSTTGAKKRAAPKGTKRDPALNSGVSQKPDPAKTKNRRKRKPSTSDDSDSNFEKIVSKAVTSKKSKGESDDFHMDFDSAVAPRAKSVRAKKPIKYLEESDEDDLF

inhibition of topoisomerase IIα catalyzed pHOT1 relaxation: completely inhibited
Compound: COc1cc([C@@H]2c3cc4c(cc3[C@@H](O[C@@H]3O[C@@H]5CO[C@@H](C)O[C@H]5[C@H](O)[C@H]3O)[C@H]3COC(=O)[C@H]23)OCO4)cc(OC)c1O [etoposide, reference compound]

Source: patent publication US9994554B2, “Barbiturate and thiobarbiturate compounds for use in cancer therapy” (NUHOPE, LLC, priority 2011, dated 2018)
